Experimental data taken from ChEMBL document CHEMBL1125472, “5-lipoxygenase: properties, pharmacology, and the quinolinyl(bridged)aryl class of inhibitors” (J Med Chem, 1992).

By UniProt entry, the sequences of proteins in these tests, tags left out. Where a name states a change or a piece, a line headed by the entry shows the natural chain unless it says otherwise.
UniProt P35354: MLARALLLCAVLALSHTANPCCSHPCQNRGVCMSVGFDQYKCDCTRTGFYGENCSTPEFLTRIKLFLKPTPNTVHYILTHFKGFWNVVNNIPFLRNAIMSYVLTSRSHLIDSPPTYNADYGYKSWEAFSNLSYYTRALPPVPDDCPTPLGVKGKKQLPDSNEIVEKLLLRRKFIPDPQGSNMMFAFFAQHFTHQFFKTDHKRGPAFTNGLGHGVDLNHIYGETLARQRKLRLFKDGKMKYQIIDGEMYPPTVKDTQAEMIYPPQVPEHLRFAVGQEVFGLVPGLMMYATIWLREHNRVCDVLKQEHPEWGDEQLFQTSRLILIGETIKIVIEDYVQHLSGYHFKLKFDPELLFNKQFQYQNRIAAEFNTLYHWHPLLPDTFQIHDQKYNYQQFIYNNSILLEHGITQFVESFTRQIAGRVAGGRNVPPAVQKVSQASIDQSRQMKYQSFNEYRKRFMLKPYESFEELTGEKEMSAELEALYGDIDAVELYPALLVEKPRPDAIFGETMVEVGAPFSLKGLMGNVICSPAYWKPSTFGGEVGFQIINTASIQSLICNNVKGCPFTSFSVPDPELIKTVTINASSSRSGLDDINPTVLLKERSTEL
UniProt P23219: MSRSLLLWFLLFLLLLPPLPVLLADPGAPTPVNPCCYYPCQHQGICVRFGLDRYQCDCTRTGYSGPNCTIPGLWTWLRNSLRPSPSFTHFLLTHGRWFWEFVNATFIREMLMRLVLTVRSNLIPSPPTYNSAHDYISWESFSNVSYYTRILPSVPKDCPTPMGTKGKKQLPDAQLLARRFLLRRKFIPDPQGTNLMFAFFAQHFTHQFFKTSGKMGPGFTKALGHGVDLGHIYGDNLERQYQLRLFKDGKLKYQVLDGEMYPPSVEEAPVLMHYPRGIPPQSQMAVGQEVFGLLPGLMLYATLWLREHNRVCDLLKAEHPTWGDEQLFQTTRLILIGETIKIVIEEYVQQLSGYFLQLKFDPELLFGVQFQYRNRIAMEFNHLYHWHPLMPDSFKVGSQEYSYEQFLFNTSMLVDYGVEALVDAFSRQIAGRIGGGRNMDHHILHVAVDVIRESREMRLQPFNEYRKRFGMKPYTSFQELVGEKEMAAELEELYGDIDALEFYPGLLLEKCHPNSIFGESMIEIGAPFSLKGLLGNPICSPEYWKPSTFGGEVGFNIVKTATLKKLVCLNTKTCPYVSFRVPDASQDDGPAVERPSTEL

Molecular target: Cyclooxygenase (Homo sapiens, UniProt P35354+P23219)
Experiment: The compound was tested for inhibitory activity against Prostaglandin G/H synthase in human polymorphonuclear leukocytes[PMNS]
Type: cell-based

Question: Which IC50 does the source give for NC1=NN(c2cccc(C(F)(F)F)c2)CC1 [BW-755C] here?
Answer: The IC50 was 12 µM.
